# In US20240166691A1, “PRODRUGS AND COMPOSITIONS FOR OPHTHALMOLOGY APPLICATIONS” (priority 2022, published 2024):
# Conditions: lyophilized sample stored at 25° C., after 21 days
substance,measurement,value
Cyclosporine-A-(N-benzyl-glycine)-linker-NH-PEG-2K TFA-salt,degradation of lyophilized sample,no degradation
